Literature values as cited in patent US5532240A, “Condensed thiophene compound and pharmaceutical use thereof” (Yoshitomi Pharmaceutical Industries, Ltd., priority 1991, dated 1996).

Tested on: 5-HT2
Details: cited from earlier work

Cc1nc2n(c(=O)c1CCN1CCC(c3noc4cc(F)ccc34)CC1)CCCC2 [Risperidone]
5-HT2 receptor antagonistic properties: extremely potent
